Measured values reported in US20240228488A1 (TAKEDA PHARMACEUTICAL COMPANY LIMITED, priority 2021, published 2024).

Chains of the proteins cited; added tags and fusions are not shown. Residues count along the entry.
UniProt P03952, 391-638 limits assumed: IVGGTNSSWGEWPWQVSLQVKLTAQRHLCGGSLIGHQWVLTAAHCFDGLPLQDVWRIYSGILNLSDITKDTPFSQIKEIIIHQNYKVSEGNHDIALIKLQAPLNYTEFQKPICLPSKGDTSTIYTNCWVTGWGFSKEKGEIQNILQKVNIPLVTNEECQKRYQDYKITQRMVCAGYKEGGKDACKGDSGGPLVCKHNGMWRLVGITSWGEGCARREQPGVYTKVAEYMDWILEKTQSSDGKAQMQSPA
UniProt P03952, 20-390 partner limits assumed: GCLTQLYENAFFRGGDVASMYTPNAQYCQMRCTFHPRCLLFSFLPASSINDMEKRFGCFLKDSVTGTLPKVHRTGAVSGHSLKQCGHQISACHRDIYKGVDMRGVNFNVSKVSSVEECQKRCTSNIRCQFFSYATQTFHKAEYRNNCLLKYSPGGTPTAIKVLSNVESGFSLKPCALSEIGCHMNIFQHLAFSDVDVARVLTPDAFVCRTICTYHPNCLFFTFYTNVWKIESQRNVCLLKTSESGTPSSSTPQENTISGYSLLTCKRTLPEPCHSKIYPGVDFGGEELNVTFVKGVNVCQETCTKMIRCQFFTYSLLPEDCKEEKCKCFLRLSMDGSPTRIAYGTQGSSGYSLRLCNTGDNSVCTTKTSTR

How the values were obtained:
[1] = molecular target: human activated kallikrein enzyme (Homo sapiens, UniProt P03952); experiment: Plasma kallikrein inhibition, fluorogenic PFR-AMC substrate, 500 pM activated kallikrein format; details: read-out: Primary Dose Response Assay: Average EC50, 300 uM PFR-AMC, 30 min preincubation, 10 min reaction
plasma kallikrein = plasma kallikrein (Homo sapiens, UniProt P03952); experiment: Neat human plasma assay, FXIIa contact pathway-activated, PFR-AMC substrate; details: read-out: Human Plasma Assay: IC90; citrated human plasma 78% final, 10 nM human FXIIa, 100 μM PFR-AMC

Row | EC50 [1] | IC90 (plasma kallikrein) | SMILES
1 | < 1 nM | 400 to 1500 nM | CC1CCC(=O)N1c1cc(C2CC2)cn2cc(CNc3ccnc(NC(=O)[C@H]4C[C@@H]4c4cccc(Cl)c4)c3)nc12 (single isomer, unassigned)
2 | < 1 nM | – | Cc1ccnc([C@H]2C[C@@H]2C(=O)Nc2cc(N[C@H](C)c3cn4cc(C5CC5)cc(N5CC6CC6C5=O)c4n3)ncn2)n1 (single isomer, unassigned)
3 | < 1 nM | 400 to 1500 nM | O=C(Nc1cc(NCc2cn3cc(C4CC4)cc(N4CC5CC5C4=O)c3n2)ccn1)[C@H]1C[C@@H]1c1cccc(Cl)c1 (single isomer, unassigned)
4 | 1 to 10 nM | – | O=C(Nc1cc(NCc2cn3cc(C4CC4)cc(N4CC5CC5C4=O)c3n2)ncn1)[C@H]1C[C@@H]1c1cccc(Cl)c1 (single isomer, unassigned)
